Measurements: patent publication US20020155084A1, “Nanoemulsion formulations” (The Regents of the University of the Michigan, priority 2000, published 2002)

Test system: hairy mouse skin

NC[C@H]1CC[C@H](C(=O)O)CC1 [tranexamic acid]
transport rate relative to inulin (2:1 nanoemulsion, FIG. 9): roughly 1.2 times
marker permeation slope (2:1 nanoemulsion, aqueous phase 0.05 M HEPES pH 7.4, 5 μg/ml inulin or 3 μg/ml tranexamic acid, FIG. 9): 0.283 % per hour per square centimeter
difference in permeation rates versus inulin (in 5% sodium lauryl sulfate (SLS), FIG. 10): 5 fold
